Target: T1, human GLP-2R (Homo sapiens, UniProt O95838)
T1 construct: The full-length cDNA of human GLP-2R was synthesized, cloned, and inserted into the pLU.cmv.Zeo vector; expressed in transfected cells
T1 sequence (O95838 1-553): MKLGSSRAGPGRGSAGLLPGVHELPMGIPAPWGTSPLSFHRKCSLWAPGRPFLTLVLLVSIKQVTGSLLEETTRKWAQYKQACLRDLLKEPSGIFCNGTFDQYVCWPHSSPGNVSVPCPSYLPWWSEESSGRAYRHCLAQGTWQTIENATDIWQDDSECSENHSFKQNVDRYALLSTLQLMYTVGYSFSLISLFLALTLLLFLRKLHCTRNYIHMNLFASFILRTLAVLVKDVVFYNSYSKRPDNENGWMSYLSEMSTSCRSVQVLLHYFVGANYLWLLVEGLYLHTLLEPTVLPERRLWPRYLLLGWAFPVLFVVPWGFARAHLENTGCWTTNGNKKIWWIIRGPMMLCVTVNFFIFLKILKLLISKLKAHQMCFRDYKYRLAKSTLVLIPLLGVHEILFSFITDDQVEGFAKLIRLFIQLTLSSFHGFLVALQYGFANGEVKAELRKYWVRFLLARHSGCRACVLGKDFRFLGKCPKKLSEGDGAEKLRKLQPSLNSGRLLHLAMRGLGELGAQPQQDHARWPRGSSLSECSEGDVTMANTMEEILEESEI
Experiment: Cell-based reporter gene assay (RGA), HEK293-GLP-2R-Luc, CRE-luciferase
Settings: diluted to 2.665 µmol/L and further 7-fold for 10 concentration points; HEK293-GLP-2R-Luc cells
Description: To generate a HEK293 cell line stably expressing CRE-driven luciferase and GLP2R, the CRE-miniP.Luc virus-containing cell supernatants were diluted in DMEM in the presence of 8 µg/mL polybrene before being added to HEK293 cells. To obtain a stable cell pool, the medium was replaced 48 h after incubation, with fresh culture medium containing 3 µg/mL puromycin. After about 3 weeks selection, the cell pool was then further infected with pLU.cmv-GLP2R.Zeo virus and selected with 200 µg/mL Zeocin and 3 µg/mL puromycin. […] The expression of GLP-2R was examined using flow cytometry. After that, the positive clones were routinely maintained in selective medium.
Cell-based RGA has been described previously. Briefly, 50 microliters of HEK293-GLP-2R-Luc cells were seeded into a 96-well white plate at a density of 4 × 10^4 cells/well. The cells were then incubated at 37 °C with 5% CO2 overnight (16 to 24 h). […] After 5 h of incubation, 100 µL of britelite plus reporter Gene Assay reagent were added to each well and mixed thoroughly under subdued light conditions for 5 min. The RLU signal was then determined with a SpectraMax M5e multimode plate reader (Molecular Devices, San Jose, CA, USA).
The RGA was validated as described previously. […] Samples of each potency level were tested by two analysts 8 times in total. […] The response of HEK293-GLP2R-Luc cells to these samples were determined as illustrated in 4.6.
The lower/upper asymptote was determined by the ratio of the top asymptote to the bottom asymptote when RGA best fit the 4PL model. The correlation coefficient (R^2), deviations from parallelism, and the regression in the 4PL model were estimated using SoftMax® Pro 7.1 software (Molecular Devices, San Jose, CA, USA). Specifically, a linear regression with an R^2 value no less than 0.98 was considered to have a very good fit. Additionally, a p-value below 0.01 was regarded as statistically significant. […] All the dose-response curves were plotted using GraphPad Prism® software 8.0.2 (GraphPad, Boston, MA, USA).

Substance	concentration–response curve in RGA (specificity)
Recombinant human chorionic gonadotrophin [rCG]	no dose–dependent response curve was induced
Recombinant human luteinizing hormone [rLH]	no dose–dependent response curve was induced
recombinant human Interleukin-2 [IL-2]	no dose–dependent response curve was induced
